These results are taken from PubChem BioAssay AID2648 (Johns Hopkins Ion Channel Center, 2010).

Protein sequences, listed by entry. Tags and fused reporters are not part of them.
UniProt P51787, whole entry: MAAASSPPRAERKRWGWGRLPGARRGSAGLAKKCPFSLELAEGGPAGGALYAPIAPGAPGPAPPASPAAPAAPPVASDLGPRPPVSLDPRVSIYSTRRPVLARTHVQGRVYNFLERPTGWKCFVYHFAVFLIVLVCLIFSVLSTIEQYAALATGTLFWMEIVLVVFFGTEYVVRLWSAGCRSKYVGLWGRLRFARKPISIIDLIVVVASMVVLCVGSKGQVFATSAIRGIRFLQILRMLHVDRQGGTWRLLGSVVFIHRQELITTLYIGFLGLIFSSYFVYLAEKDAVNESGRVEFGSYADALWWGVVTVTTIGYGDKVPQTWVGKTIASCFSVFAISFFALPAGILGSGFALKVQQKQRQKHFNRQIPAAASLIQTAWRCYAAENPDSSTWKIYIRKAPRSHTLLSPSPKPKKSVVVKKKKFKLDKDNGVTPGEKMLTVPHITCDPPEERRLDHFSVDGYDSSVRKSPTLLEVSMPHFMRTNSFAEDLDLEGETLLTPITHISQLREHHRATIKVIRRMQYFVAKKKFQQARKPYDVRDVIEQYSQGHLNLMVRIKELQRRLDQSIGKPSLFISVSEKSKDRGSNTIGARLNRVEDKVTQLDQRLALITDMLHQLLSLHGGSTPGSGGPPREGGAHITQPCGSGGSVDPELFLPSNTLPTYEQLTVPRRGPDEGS

This is a selection; strong and weak results do not stand in their true shares. Some results for these compounds are left out of this collection, so the calls shown say nothing about other tests. The source made the active and inactive calls.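 The calls were made as follows: active = fluorescence ratio B-score, a plate-corrected score, at least three library SD, with initial intensity B-score within 5 SD; inactive = the rest.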

For this experiment, the target named is Potassium voltage-gated channel subfamily KQT member 1 (Homo sapiens) (UniProt P51787). The experiment in a line: human KCNQ1 current enhancers – cell-based, thallium flux, high-throughput, primary screen (AID 2648). As to conditions: CHO-K1 KCNQ1, thallium flux FluxOR fluorescence; at 10 µM.
Regarding `O=C(NCC1(N2CCCCC2)CCCCC1)c1cc([N+](=O)[O-])ccc1Cl`, the outcome was inactive.
For `CN1[C@@H]2CC[C@H]1CC(OC(=O)C(O)(c1ccccc1)c1ccccc1)C2` (some centres undefined) the value was “inactive”; for `CC(C)N1C(=O)CC2(CCN(CCOC(=O)C(O)(c3ccccc3)c3ccccc3)CC2)C1=O`, “inactive”.
Turning to `COc1cc(SC)ccc1C(=O)NCC1(N(C)C)CCCCC1`, the result was inactive.
Take `CCN(CC)CC(C)C(C)OC(=O)C(O)(c1ccccc1)c1ccccc1` (centres undefined): the result was inactive.
Take `Cc1ccc(C(=O)NCC2(N3CCCCC3)CCCCC2)cc1`: the result was inactive.
Regarding `CN(C)C1CCCC1OC(=O)C(O)(c1ccccc1)c1ccccc1` (centres undefined), the result was inactive.
The entry for `CN(C)c1ccc(C(=O)NCC2(N(C)C)CCCCC2)cc1` is “inactive”.
Take `Cc1ccccc1C(=O)NCC1(N2CCCCC2)CCCCC1`: the outcome was inactive.
For `O=C(NCC1(N2CCCCC2)CCCCC1)c1cc(F)c(F)cc1Cl` the value was “inactive”; for `C=CCN1CCN(CCOC(=O)C(O)(c2ccccc2)c2ccccc2)CC1`, “inactive”.
The entry for `O=C(NCC1(N2CCCCC2)CCCCC1)c1cccc(Br)c1` is “inactive”; for `Cc1cc(C(=O)NCC2(N3CCCCC3)CCCCC2)ccc1[N+](=O)[O-]` it is “inactive”; for `CCN1CCCC(OC(=O)C2(O)c3ccccc3C=Cc3ccccc32)C1` (centres undefined) it is “inactive”.
Consider `COc1ccc(C(=O)NCC2(N(C)C)CCCCC2)cc1`, for which the outcome was inactive.
The entry for `CN(C)C1(CNC(=O)c2ccc(Br)cc2)CCCCC1` is “inactive”; for `COc1cc(C(=O)NCC2(N(C)C)CCCCC2)c([N+](=O)[O-])cc1OC` it is “inactive”; for `COc1ccc(Cl)cc1C(=O)NCC1(N(C)C)CCCCC1` it is “inactive”.
For `COc1cccc(C(=O)NCC2(N3CCCCC3)CCCCC2)c1` the value was “inactive”; for `O=C(NCC1(N2CCCCC2)CCCCC1)c1cccc(Cl)c1`, “inactive”.
`O=C(OC1CN2CCC1CC2)C(CO)(c1ccccc1)c1ccccc1` (centres undefined): the outcome was inactive.
For `COc1ccc(Br)c(C(=O)NCC2(N3CCCCC3)CCCCC2)c1` the value was “inactive”; for `CN(C)c1cccc(C(=O)NCC2(N(C)C)CCCCC2)c1`, “inactive”.
Turning to `CC(C)Oc1ccc(C(=O)NCC2(N(C)C)CCCCC2)cc1`, the outcome was inactive.
